The chains behind the UniProt entries cited, without tags or fusion partners. Where a name states a change or a piece, a line headed by the entry shows the natural chain unless it says otherwise.
UniProt P18031: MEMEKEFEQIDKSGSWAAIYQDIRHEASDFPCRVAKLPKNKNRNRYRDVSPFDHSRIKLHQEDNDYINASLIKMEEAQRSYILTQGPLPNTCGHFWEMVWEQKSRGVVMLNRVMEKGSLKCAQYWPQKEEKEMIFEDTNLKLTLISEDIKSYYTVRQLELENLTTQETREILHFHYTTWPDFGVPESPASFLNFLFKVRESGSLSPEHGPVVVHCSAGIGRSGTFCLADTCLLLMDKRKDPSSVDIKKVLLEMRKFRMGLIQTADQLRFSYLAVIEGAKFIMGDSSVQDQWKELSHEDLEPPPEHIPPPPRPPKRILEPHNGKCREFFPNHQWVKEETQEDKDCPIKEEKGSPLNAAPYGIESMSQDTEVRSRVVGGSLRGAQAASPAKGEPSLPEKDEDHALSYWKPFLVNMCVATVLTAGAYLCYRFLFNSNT

According to patent publication US6110963A, “Aryl-oxo-acetic acids useful in the treatment of insulin resistance and hyperglycemia” (American Home Products Corporation, priority 1999, dated 2000):

Target: Human recombinant PTP1B (hPTP1B) (Homo sapiens, UniProt P18031)
Experiment: Inhibition of tri-phosphorylated insulin receptor dodecaphosphopeptide dephosphorylation by hPTP1B
Format: biochemical
Settings: malachite green phosphate detection

## Ammonium molybdate tetrahydrate
  IC50: 8.7 µM
